Measurements from patent US5200415A, “Pyrazolo[1,5-a]pyridine-3-carboxylic acid derivatives and their pharmaceutical use” (Asahi Kasei Kogyo Kabushiki Kaisha, priority 1990, dated 1993).

The chains behind the UniProt entries cited, without tags or fusion partners. Residues count along the entry.
UniProt P35563, 24-483 limits assumed: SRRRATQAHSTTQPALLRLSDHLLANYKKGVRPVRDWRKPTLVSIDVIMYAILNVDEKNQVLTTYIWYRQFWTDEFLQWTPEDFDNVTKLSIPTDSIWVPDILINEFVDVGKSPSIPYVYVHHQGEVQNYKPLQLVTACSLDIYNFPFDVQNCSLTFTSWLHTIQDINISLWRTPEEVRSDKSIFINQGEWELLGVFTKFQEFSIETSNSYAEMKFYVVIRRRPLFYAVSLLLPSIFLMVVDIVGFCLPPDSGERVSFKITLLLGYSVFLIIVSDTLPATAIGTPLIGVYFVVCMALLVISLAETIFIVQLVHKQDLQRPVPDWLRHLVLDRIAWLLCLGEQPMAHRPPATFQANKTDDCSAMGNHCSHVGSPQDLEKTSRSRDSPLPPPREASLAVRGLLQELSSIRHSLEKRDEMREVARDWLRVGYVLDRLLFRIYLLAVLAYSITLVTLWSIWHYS

Biological target: 5-HT3 receptor (Rattus norvegicus, UniProt P35563)
Test: 5-HT3 receptor binding experiment (3H-quipazine binding assay, rat cerebral cortical membrane fraction)
Conditions: read-out: IC50 value; concentration corresponding to 50% inhibition of 3H-quipazine binding

Q: How did the IC50 turn out when `Cc1cccc2c(C(=O)O[C@H]3CN4CCC3CC4)cnn12` was run?
A: The IC50 was 1.3 nM.

Q: With `Cc1cccc2c(C(=O)OC3CN4CCC3CC4)cnn12` (stereo not shown) as the compound, how does the IC50 read?
A: The IC50 was 0.21 nM.

Q: `Cc1cccc2c(C(=O)O[C@@H]3CN4CCC3CC4)cnn12` was tested. Which IC50 did it give?
A: Its IC50 is 0.11 nM.

Q: For `Cc1nn2c(C)cccc2c1C(=O)OC1CN2CCC1CC2` (stereo not shown), which IC50 is on record?
A: The IC50 was 0.14 nM.
